Positions count from the first letter of the chain named.
T1: cyno TREM-1-His protein (cynomolgus monkey, UniProt A0A2K5VHG8 21-204)
T1 construct: extracellular domain; Soluble analyte of the Octet assay; not shown: His tag
T1 sequence: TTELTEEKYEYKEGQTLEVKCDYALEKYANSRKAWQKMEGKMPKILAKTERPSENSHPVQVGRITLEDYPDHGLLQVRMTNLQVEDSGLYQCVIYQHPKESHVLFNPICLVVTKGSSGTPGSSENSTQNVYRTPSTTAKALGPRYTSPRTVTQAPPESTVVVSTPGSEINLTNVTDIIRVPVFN

Sequences of proteins named here, by UniProt entry; tags and fusion partners are left off. Residues count along the entry.
UniProt Q9NP99, 21-234 limits assumed: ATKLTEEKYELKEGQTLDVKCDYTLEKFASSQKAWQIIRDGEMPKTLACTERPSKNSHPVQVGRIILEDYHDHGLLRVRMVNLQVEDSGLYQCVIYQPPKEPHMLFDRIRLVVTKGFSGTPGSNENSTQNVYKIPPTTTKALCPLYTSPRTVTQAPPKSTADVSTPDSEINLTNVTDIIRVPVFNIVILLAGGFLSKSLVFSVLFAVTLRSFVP
UniProt Q9NP99, 21-205: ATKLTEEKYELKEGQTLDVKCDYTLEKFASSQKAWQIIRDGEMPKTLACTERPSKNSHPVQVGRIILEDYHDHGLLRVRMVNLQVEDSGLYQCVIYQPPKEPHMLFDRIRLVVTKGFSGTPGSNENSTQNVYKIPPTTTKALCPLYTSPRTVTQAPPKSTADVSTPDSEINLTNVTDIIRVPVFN

T2: cyno TREM-1 (cynomolgus monkey, UniProt A0A2K5VHG8 21-233)
T2 construct: whole, on cells; also called cynomolgus TREM-1
T2 sequence: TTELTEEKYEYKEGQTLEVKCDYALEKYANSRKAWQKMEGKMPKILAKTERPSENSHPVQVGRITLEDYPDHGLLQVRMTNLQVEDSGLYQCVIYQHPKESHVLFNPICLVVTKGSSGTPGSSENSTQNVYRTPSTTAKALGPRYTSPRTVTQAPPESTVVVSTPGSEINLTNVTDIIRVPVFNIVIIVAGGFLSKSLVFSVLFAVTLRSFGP

B1: 57C10 (antibody, V domains shown)
VH: QVQLVQSGAEVKKPGASVKVSCKASGYTFTRYDINWVRQATGQGLEWMGWLNPNSGNTGQTQKFRGRVTMTRNTSINTAYMELSSLRSEDTAVYYCARGGYTSAWRWYFDLWGRGTLVTVSS
VL: DIQMTQSPSSLSASVGDRVTITCQASQDINNHLNWYQQKPGKAPKLLIYDVSNLETGVPSSFSGSGCGTDFTFTISSLQPEDIATYFCQQYDKLPLTFGGGTKVEIE
B2: 64D7 (antibody, V domains shown)
VH: QVQLVQSGAEVKKPGASVKVSCKASGYTFTSYDINWVRQATGQGLEWMGWMNPNRGNTGYVKKFQGRVTMTRNTSISTAYMELSSLRSEDTAVYYCARRRAVYRSSWEWYFDLWGRGTLVTVSS
VL: DTQMTQSPSSLSASEGDRVTITCQASQDIFNDLNWYQEKPGKAPKLLIYHASNLETGVPSRFSGSGSGTDYTFTISSLQPEDIATYYCQQYGNLPLTFGGGTKVEIK
B3: 44A5 (antibody, V domains shown)
VH: EVQLLESGGGLVQPGGSLRLSCAASGFTFSTYAMNWVRQAPGKGLEWVSTVSGSGRPTYYADSVKGRFTISRDNSKNTLYLQMNSLRAEDTAVYYCAKAYYSNYLFDYWGQGTLVTVSS
VL: EIVMTQSPAILSVSPGERATLSCRASQSVSSNLAWYQQKPGQAPRLLIYGASTRATGVPARFSGGGSGTDFTLTISSLQSEDFAVYYCQHCKTWPPLTFGGGTKVDLK
B4: 46H7 (antibody, V domains shown)
VH: EVQLLESGGGMVQPGGSLRLSCAVSGFTFSRYAMSWVRQAPGKGLEWVSEMRGSSGSTYYADSVKGRFTISRDNSKNTLYLQMNSLRVEDTAIYYCAKEFSSNSLFDYWGQGTLVTVSS
VL: EIVMTQSPATLSVSPGERATLSCRASQSVNSNLAWYQQKPGRAPRLLIYGASTRATGIPARFSGSGSGTEFTLTISSLQSEDFAVYYCQQFYNWPPWTFGQGTKVEIK
notes: also called 19332
B5: 49A2 (antibody, V domains shown)
VH: EVQLVESGGGLVQPGGSLRLSCAASGFTFSSNWMSWVRQAPGKGLDWMASMKQDGSEIYYVDSVKGRFTISRDNAKNSLHLQMNSLRAEDTAVYYCVRGGWRFESWGQGALVTVSS
VL: EIVMTQSPATLSVSPGERATLSCRASQSVSSNLAWYQQKSGQAPRLLIYGASIRATGIPARVSGSGSGTEFTFTISSLQSEDFAVYYCQQYKNWPLTLGGGTKVEIK
notes: also called 19333
B6: 66B8 (antibody, V domains shown)
VH: QVQLVQSGAEVKKPGASVKVSCKASGYTFTGYYMHWVRQAPGQGLEWMGWFKPNSGVTNYAQKFQGRVTMSRDTSISTAYMELSSLRSDDTAVYYCARAGYSTSWKDWFDPWGQGTLVTVSS
VL: DIQMTQFPSSVSASVGDRVTITCRASQGISRWLAWYQQKQGKAPKLLIYMVSSLQSGVPSRFSGSGSGTDFTLTISSLQPEDFATYYCQQSHNFPITFGQGTRLDIK
B7: 50A12 (antibody, V domains shown)
VH: EVQLVESGGGLVQPGGSLRLSCAASGFTFSSYWMSWVRQAPGKGLEWVANIKQDGSEEYYVDSVKGRFTISRDNAKNSLFLQMNSLRAEDTAVYYCARDYGDSFDYWGQGTLVTVSS
VL: DIQMTQSPSSVSASVGDRVTITCRASQGIRKWLAWYQQKPGRAPKLLIYAASRLQSGVPSRFSGSGSGTDFTLTISSLRPEDFATYYCLQAHGFPWTFGQGTKVEIK
B8: 30H2 (antibody, V domains shown)
VH: EVQVLESGGGLVQPGESLRLSCTASGFTFNAYAMSWVRQAPGKGLEWVSTISGSGSTTYYADSVKGRFTISRDNSKNTLDLQMNSLRAADTAVYYCAKVAGSNFFFDHWGQGTLVTVSS
VL: B4 VL with V29I, R42Q, S52Y, A60D, Q90E, Y92I, N93M, Q101L, K104Q
notes: also called 19330
B9: 57F5 (antibody, V domains shown)
VH: EVQLLESGGGLVQPGGSLRLSCAASGFTFSSYAMTWVRQAPGRGLQWVSTISGSGSNTYYADSVKGRFTISRDNSKNTLYLQMSSLRAEDTAVYYCAKEGGSNRYFHHWGQGTLVTISS
VL: DIQMTQSPSSLSASVGDRVTITCRASQSISSNLNWYQQKPGKAPKLLISAASNLQSGVPSRFSGSESGTDFTLTISSLQSEDFATYYCQQSDSLPLTFGGGTKVEIN

These binders were tested against T3, human TREM-1 (human, UniProt Q9NP99 21-234) (assay: flow cytometry on HEK293 cells transfected with human TREM-1 and DAP12, supernatant 2.5 ug/mL, geomean fold over irrelevant control antibody).
T3 construct: also called huTREM1; TREM-1 receptor
With B1 the “GM Fold” value was 1670 fold. For B2, the “GM Fold” value was 1480 fold. For B3, the “GM Fold” value was 1630 fold. B4 was tested, and the “GM Fold” value was 1910 fold. B5 was tested, and the “GM Fold” value was 2220 fold. In the case of B6, the “GM Fold” value is reported as 1630 fold. With B7 the “GM Fold” value was 2420 fold. B8 was tested, and the “GM Fold” value was 108 fold. For B9, the “GM Fold” value was 719 fold.

Each binder was assayed against T3, human TREM-1 (assay: cell-based or functional assay).
With B1 the “Ab IC50-Human PBMC (Trial 1), TNFα release induced by PGLYRP1/PGN” value was 8.8 pM and the “Ab IC50-Human PBMC (Trial 2), TNFα release induced by PGLYRP1/PGN” value was 7.2 pM. For B2, the “Ab IC50-Human PBMC (Trial 1), TNFα release induced by PGLYRP1/PGN” value was 4.3 pM and the “Ab IC50-Human PBMC (Trial 2), TNFα release induced by PGLYRP1/PGN” value was 2.4 pM. B3 was tested, and the “Ab IC50-Human PBMC (Trial 1), TNFα release induced by PGLYRP1/PGN” value was 3.5 pM and the “Ab IC50-Human PBMC (Trial 2), TNFα release induced by PGLYRP1/PGN” value was 6.1 pM. For B4, the “Ab IC50-Human PBMC (Trial 1), TNFα release induced by PGLYRP1/PGN” value was 6.3 pM and the “Ab IC50-Human PBMC (Trial 2), TNFα release induced by PGLYRP1/PGN” value was 4.4 pM. For B5, the “Ab IC50-Human PBMC (Trial 1), TNFα release induced by PGLYRP1/PGN” value was 3.1 pM and the “Ab IC50-Human PBMC (Trial 2), TNFα release induced by PGLYRP1/PGN” value was 3.3 pM. In the case of B6, the “Ab IC50-Human PBMC (Trial 1), TNFα release induced by PGLYRP1/PGN” value is reported as 31.6 pM. With B7 the “Ab IC50-Human PBMC (Trial 1), TNFα release induced by PGLYRP1/PGN” value was 3.3 pM and the “Ab IC50-Human PBMC (Trial 2), TNFα release induced by PGLYRP1/PGN” value was 3.6 pM. B8 was tested, and the “Ab IC50-Human PBMC (Trial 1), TNFα release induced by PGLYRP1/PGN” value was 6.9 pM.

The binders below were run against T4, recombinant soluble human TREM-1-His protein (human, UniProt Q9NP99 21-205, biotinylated in the bead assays of Tables 6 and 7 (sites not given)) (assay: limiting antigen assay, biotinylated huTREM-1-His at 7.5 ng/ml on LumAvidin beads, antibody 5 ug/mL, flow cytometry).
T4 construct: also called b-huTREM-1-His; biotinylated human TREM-1-His antigen; not shown: His tag
For B1, the “FACS Geomean” value was 28500. With B2 the “FACS Geomean” value was 24500. B3 was tested, and the “FACS Geomean” value was 36800. In the case of B4, the “FACS Geomean” value is reported as 38000. For B5, the “FACS Geomean” value was 28300. With B6 the “FACS Geomean” value was 23800. For B7, the “FACS Geomean” value was 14600. B8 was tested, and the “FACS Geomean” value was 91700. With B9 the “FACS Geomean” value was 25300.

The binders below were run against T1, cyno TREM-1-His protein (assay: BLI (Octet HTX), antibody captured on anti-human Fc sensor, cyno TREM-1-His as analyte, 1:1 model).
Description: (§1) Briefly, TREM-1 hybridoma supernatants normalized to 10 μg/mL in DMEM null media were prepared by diluting 1:10 in OCTET® assay buffer (10 mM Tris, 0.1% Triton X-100, 150 mM NaCl, 1 mM CaCl₂), 0.1 mg/mL BSA, at pH 7.6) to a final test concentration of 1 μg/mL. Amine reactive second-generation AR2G Biosensors (Molecular Devices) were pre-incubated in 200 μL nanopore water for a minimum of 10 minutes at room temperature before use. The AR2G Biosensors were then activated for 5 minutes in a solution of 20 mM EDC (1-Ethyl-3-[3-dimethylaminopropyl]carbodiimide hydrochloride) (ForteBio) pre-mixed with 10 mM NHS (N-hydroxysulfosuccinimide) (ForteBio) in nanopore water. An in-house generated mouse anti-human Fc monoclonal antibody was coupled to the AR2G Biosensors at 10 μg/mL in 10 mM sodium acetate buffer at pH 5 for 5 minutes, quenched with 1M ethanolamine at pH 8.5 for 5 minutes, and then used to capture antibody from solution. The TREM-1 test antibodies were loaded onto the Biosensors for 5 minutes, and baseline measurements were taken for 1 minute. […] The association of recombinant human TREM-1 with the antibody-loaded sensor was measured for 5 minutes, followed by dissociation in OCTET® buffer for 10 minutes. Biosensors were then regenerated with 10 mM glycine at pH 1.7, reloaded with the same TREM-1 antibodies on the same sensors for 5 minutes, and the same method was used to measure association and dissociation of cyno TREM-1-His protein. Data was referenced using a 0 nM analyte reference sensor. Kinetic analysis was performed using a 1:1 Langmuir model with mass transfer in Genedata Screener software.
Work on B1 yielded a koff of 0.00024 s⁻¹ and a kon of 187000 M⁻¹ s⁻¹. In the case of B2, the koff is reported as 0.000353 s⁻¹ and the kon is reported as 519000 M⁻¹ s⁻¹. Binder B3 has a koff of 0.00152 s⁻¹ and a kon of 751000 M⁻¹ s⁻¹. Work on B4 yielded a Kd of 993 pM, a koff of 0.00113 s⁻¹ and a kon of 1.14e+06 M⁻¹ s⁻¹. B5 was tested, and the koff was 0.00144 s⁻¹ and the kon was 773000 M⁻¹ s⁻¹. With B6 the koff was 0.000253 s⁻¹ and the kon was 154000 M⁻¹ s⁻¹. Binder B7 has a koff of 0.00441 s⁻¹ and a kon of 687000 M⁻¹ s⁻¹. For B8, the koff was 0.00122 s⁻¹ and the kon was 214000 M⁻¹ s⁻¹. Work on B9 yielded a koff of less than 0.000176 s⁻¹ and a kon of 607000 M⁻¹ s⁻¹.

The binders below were run against T2, cyno TREM-1 (assay: flow cytometry on HEK293 cells transfected with cyno TREM-1 and DAP12, supernatant 2.5 ug/mL, geomean fold over irrelevant control antibody).
In the case of B1, the “GM Fold” value is reported as 2430 fold. With B2 the “GM Fold” value was 2150 fold. With B3 the “GM Fold” value was 2240 fold. With B4 the “GM Fold” value was 2690 fold. In the case of B5, the “GM Fold” value is reported as 2980 fold. For B6, the “GM Fold” value was 1520 fold. In the case of B7, the “GM Fold” value is reported as 2780 fold. With B8 the “GM Fold” value was 76.9 fold. With B9 the “GM Fold” value was 2340 fold.

Each binder was assayed against T4, recombinant soluble human TREM-1-His … (assay: BLI (Octet HTX), antibody captured on anti-human Fc sensor, soluble human TREM-1-His as analyte, 1:1 model).
Description: as §1
In the case of B1, the Kd is reported as 824 pM, the koff is reported as 0.000251 s⁻¹ and the kon is reported as 304000 M⁻¹ s⁻¹. B2 gave a Kd of less than 250 pM, a koff of less than 0.000176 s⁻¹ and a kon of 705000 M⁻¹ s⁻¹. B3 gave a Kd of 404 pM, a koff of 0.000182 s⁻¹ and a kon of 451000 M⁻¹ s⁻¹. With B4 the Kd was 457 pM, the koff was 0.000336 s⁻¹ and the kon was 737000 M⁻¹ s⁻¹. With B5 the Kd was 767 pM, the koff was 0.000286 s⁻¹ and the kon was 373000 M⁻¹ s⁻¹. Binder B6 has a Kd of 7980 pM, a koff of 0.00136 s⁻¹ and a kon of 171000 M⁻¹ s⁻¹. For B7, the Kd was 4850 pM, the koff was 0.00252 s⁻¹ and the kon was 519000 M⁻¹ s⁻¹. B8 was tested, and the Kd was 898 pM, the koff was 0.000293 s⁻¹ and the kon was 326000 M⁻¹ s⁻¹. B9 was tested, and the Kd was less than 281 pM, the koff was less than 0.000176 s⁻¹ and the kon was 627000 M⁻¹ s⁻¹.

The binders below were run against T3, human TREM-1 (assay: flow cytometry competition, competitor PGLYRP1-His/PGN on HEK293 cells with human TREM1/DAP12, antibody 2.5 ug/mL).
B1 gave a Receptor-ligand % inhibition of 100%. Work on B2 yielded a Receptor-ligand % inhibition of 96%. For B3, the Receptor-ligand % inhibition was 100%. B4 showed a Receptor-ligand % inhibition of 100%. For B5, the Receptor-ligand % inhibition was 100%. B6 showed a Receptor-ligand % inhibition of 85%. B7 showed a Receptor-ligand % inhibition of 100%. For B8, the Receptor-ligand % inhibition was 101%. B9 showed a Receptor-ligand % inhibition of 100%.

Source: patent US20260274913A1 (Amgen, published 2026)
